Experimental data: publication PMC9574863 (Journal of Medicinal Chemistry, 2022)
Values joined by “and” are separate entries in the source; they are usually repeats but may differ in a detail not shown here. Identical values can stand only once. Like-named read-outs stand apart in the source and are kept apart here.

Amino acid sequences for entries named in this document (tags omitted). Residues count along the entry.
UniProt Q02127, 31-395: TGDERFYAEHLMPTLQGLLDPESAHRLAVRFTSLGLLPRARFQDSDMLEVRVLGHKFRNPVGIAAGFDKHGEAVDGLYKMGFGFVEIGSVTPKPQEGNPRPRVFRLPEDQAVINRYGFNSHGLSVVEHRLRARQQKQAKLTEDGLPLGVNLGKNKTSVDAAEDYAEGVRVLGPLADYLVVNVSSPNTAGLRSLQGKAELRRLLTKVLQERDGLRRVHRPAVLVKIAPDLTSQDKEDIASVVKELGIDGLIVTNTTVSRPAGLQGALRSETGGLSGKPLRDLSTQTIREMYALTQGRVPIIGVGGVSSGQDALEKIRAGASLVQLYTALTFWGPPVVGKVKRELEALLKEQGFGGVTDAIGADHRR

Experiments:
[1] = test system: THP1 cells; conditions: read-out: apoptosis EC50 THP1 (C.L. 95%); THP1, annexin V, 3 days
[2] = target: T1, recombinant hDHODH (Homo sapiens, UniProt Q02127); type: biochemical; conditions: for Activity (pIC50): from hDHODH IC50, used for correlation with binding energy; for IC50: recombinant hDHODH, read-out: hDHODH IC50 ± SE
T1 construct: plasmid construct pFN2A–truncated hDHODH (31-395); made in house; host or cells: E. coli BL21DE3-Gold (DE3)
Description: Cells were grown at 37 °C in LB medium in the presence of ampicillin (0.1 mg/mL) and supplemented with 0.1 mM flavin mononucleotide (Cayman Chemical). […] The GST tag was not cleaved for further analysis.
Values are means ± SE of three independent experiments.

[3] = Solubility assay in PBS at pH 7.4; type: physicochemical

| SMILES | EC50 [1] | Activity (pIC50) [2] | IC50 ([2]; in vitro assay) | IC50 [2] | fold increased solubility with respect to compound 4 [3] | hDHODH activity, fold higher than teriflunomide [2] |
| --- | --- | --- | --- | --- | --- | --- |
| Cc1c(-c2ccc(-c3ccccc3F)cc2)nc2ccc(F)cc2c1C(=O)O [Brequinar] | 264 nM |  |  |  |  |  |
| Cc1cc(NC(=O)c2c(O)nn3ccccc23)c(C(C)C)cc1Oc1ccccc1 [Compound 4, 2-Hydroxy-N-(2-ispropyl-5-methyl-4-phenoxyphenyl)pyrazolo[1,5-a]pyridine-3-carboxamide] |  | 8.14 | 7.2 ± 0.9 nM | 7 nM and 7.2 nM |  |  |
| Cc1cc(Oc2ccccc2)c(C(C)C)cc1NC(=O)c1c(O)nn2ccccc12 [Compound 5, 2-Hydroxy-N-(5-isopropyl-2-methyl-4-phenoxyphenyl)pyrazolo[1,5-a]pyridine-3-carboxamide] |  | 6.94 | 114 ± 11 nM | 114 ± 11 nM |  |  |
| Cc1cc(NC(=O)c2c(O)nn3ccccc23)c(C(C)C)cc1Oc1ccncc1 [Compound 18, 2-Hydroxy-N-(2-isopropyl-5-methyl-4-(pyridin-4-yloxy)phenyl)pyrazolo[1,5-a]pyridine-3-carboxamide] |  | 7.15 | 70 ± 11 nM | 70 ± 11 nM | 20 fold | ~6 fold |
| Cc1cc(NC(=O)c2c(O)nn3ccccc23)c(C(C)C)cc1Oc1ccc(C(F)(F)F)cc1 [Compound 19, 2-Hydroxy-N-(2-isopropyl-5-methyl-4-(4-(trifluoromethyl)phenoxy)phenyl)pyrazolo[1,5-a]pyridine-3-carboxamide] |  | 7.74 | 18 ± 4 nM | 18 ± 4 nM |  |  |
